Kd data for eight compounds are collected here from patent US20080090756A1, “Somatostatin agonists” (The Administrators of the Tulane Educational Fund, priority 2001, published 2008).

By UniProt entry, the sequences of proteins in these tests, tags left out. Where a name states a change or a piece, a line headed by the entry shows the natural chain unless it says otherwise.
UniProt P35346: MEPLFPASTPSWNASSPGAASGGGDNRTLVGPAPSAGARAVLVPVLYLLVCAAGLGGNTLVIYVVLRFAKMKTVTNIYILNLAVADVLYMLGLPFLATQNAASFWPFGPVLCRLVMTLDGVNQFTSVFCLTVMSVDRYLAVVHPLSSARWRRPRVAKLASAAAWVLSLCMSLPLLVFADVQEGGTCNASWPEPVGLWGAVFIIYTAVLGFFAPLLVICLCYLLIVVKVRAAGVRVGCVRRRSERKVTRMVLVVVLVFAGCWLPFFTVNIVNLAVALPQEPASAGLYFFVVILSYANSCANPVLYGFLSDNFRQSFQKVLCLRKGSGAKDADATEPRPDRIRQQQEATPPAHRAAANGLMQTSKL
UniProt P32745: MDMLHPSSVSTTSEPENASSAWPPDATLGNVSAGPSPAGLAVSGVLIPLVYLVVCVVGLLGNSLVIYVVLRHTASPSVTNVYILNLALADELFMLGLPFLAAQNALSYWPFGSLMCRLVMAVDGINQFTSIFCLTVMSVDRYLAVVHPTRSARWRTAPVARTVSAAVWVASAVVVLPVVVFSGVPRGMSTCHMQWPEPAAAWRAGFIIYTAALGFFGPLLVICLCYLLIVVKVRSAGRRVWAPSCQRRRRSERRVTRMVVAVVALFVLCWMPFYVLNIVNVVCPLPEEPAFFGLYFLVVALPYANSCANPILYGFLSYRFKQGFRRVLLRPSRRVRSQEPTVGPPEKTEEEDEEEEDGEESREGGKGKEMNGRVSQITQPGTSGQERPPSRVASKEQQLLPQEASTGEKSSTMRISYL
UniProt P30872: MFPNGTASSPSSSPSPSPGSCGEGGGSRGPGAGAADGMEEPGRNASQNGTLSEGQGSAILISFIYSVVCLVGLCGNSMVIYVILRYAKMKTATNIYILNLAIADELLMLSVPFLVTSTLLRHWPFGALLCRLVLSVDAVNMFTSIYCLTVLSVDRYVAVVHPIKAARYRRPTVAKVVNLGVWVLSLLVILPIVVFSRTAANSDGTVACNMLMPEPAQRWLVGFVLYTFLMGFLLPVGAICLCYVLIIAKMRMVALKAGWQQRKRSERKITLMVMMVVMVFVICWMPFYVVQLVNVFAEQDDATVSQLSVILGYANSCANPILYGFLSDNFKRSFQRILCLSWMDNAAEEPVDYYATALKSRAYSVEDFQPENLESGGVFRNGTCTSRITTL
UniProt P30874: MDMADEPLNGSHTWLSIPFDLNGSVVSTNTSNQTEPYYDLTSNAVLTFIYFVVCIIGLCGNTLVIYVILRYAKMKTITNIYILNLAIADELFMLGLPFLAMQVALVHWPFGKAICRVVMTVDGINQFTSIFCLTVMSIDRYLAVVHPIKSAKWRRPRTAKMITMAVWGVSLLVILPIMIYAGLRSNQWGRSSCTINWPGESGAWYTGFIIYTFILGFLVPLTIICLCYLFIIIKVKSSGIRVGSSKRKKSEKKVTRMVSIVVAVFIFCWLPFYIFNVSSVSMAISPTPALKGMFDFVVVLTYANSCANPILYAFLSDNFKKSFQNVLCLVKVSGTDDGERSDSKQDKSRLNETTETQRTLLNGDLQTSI

Each structure is given as a SMILES string.

By Kd is commonly meant the constant that tells how readily two partners part at equilibrium.

The target in assay [1] is T1, hSSTR-5 (Homo sapiens, UniProt P35346).
T1 construct: each containing the entire coding region of the full-length receptors; expressed in transfected cells
Kind of assay: Radioligand binding assay, cloned human somatostatin receptor type 5. As to conditions: CHO-K1 cell membranes, displacement of [125I]Tyr11-SRIF; mean ± SEM, single values = one experiment; read-out: Kd ± SEM hsst5. The source says:
(§1) Functional Expression of the Cloned Human Somatostatin Receptors. The genomic clones containing the human somatostatin receptors (hSSTR-1 to hSSTR-5) (Yamada, Y., et al. al., Proc. Natl. Acad. Sci. USA. 1992, 89, 251-255; Yasuda, K., et al., J. Biol. Chem. 1992, 267, 20422-20428; Yamada, Y., et al., Mol. Pharmacol. 1992, 42, 2136-2142; Rohrer, L., et al., Proc. Natl. Acad. Sci. USA. 1993, 90, 4196-4200.) were kindly provided by Dr. Graeme I. Bell of the University of Chicago. The hSSTR-1, hSSTR-2, hSSTR-3, hSSTR-4 and hSSTR-5 cDNAs were isolated as a 1.5-kb PstI-XmnI fragment, 1.7-kb BamHI-HindIII fragment, 2.0-kb NcoI-HindIII fragment, 1.4-kb NheI-NdeI fragment, and a 1.2-kb HindIII-XbaI fragment, respectively, each containing the entire coding region of the full-length receptors. These fragments were independently subcloned into the corresponding restriction endonuclease sites in the mammalian expression vector pCMV5, downstream from the human cytomegalovirus (CMV) promoter, to produce the expression plasmids pCMV5/hSSTR-1, pCMV5/hSSTR-2, pCMV5/hSSTR-3, pCMV5/hSSTR-4 and pCMV5/hSSTR-5. For transfection into CHO-K1 cells, a plasmid, pRSV-neo (American Type Culture Collection, Rockville, Md.), carrying the neomycin mammalian cell selectable marker was added.
Receptor Expression and Transfection. Transfections were performed by the calcium phosphate method. […] Membranes were prepared from the isolated clones and hSSTR expression was initially assessed for binding with [^125I]Tyr^11-SRIF and [^125I]MK-678 (for SSTR-2). […]
(§2) Specific binding is defined as the total radioligand bound minus that bound in the presence of 1.0 μM SRIF. […] The binding affinities are expressed as Ki values ±SEM (nM) for each of the five receptor subtypes. […]
(§3) The binding affinities (Kd, nM) of all SRIF analogues were determined using their concentration-dependent displacement of ^125I-radiolabeled peptide ligands from membranes isolated from CHO cells transfected with the corresponding human somatostatin receptor.
For orientation: Loss of bound radioactivity is the signal in a displacement assay; it reports binding, not function.

The target in assay [2] is T2, hSSTR-3 (Homo sapiens, UniProt P32745).
T2 construct: each containing the entire coding region of the full-length receptors; expressed in transfected cells
Kind of assay: Radioligand binding assay, cloned human somatostatin receptor type 3. As to conditions: CHO-K1 cell membranes, displacement of [125I]Tyr11-SRIF; mean ± SEM, single values = one experiment; read-out: Kd ± SEM hsst3.
Excerpt: as §1
Receptor Expression and Transfection. Transfections were performed by the calcium phosphate method. CHO-K1 cells were maintained in α-minimum essential medium (α-MEM; Gibco) supplemented with 10% fetal calf serum and transfected with each of the expression plasmids using calcium phosphate precipitation. Clones that had inherited the expression plasmid were selected in α-MEM supplemented with 500 μg mL^−1 of geneticin (G418; Gibco). Independent CHO-K1 clones were picked by glass-ring cloning and expanded in culture in the selective media. Membranes were prepared from the isolated clones and hSSTR expression was initially assessed for binding with [^125I]Tyr^11-SRIF and [^125I]MK-678 (for SSTR-2).
Radioligand Binding Assays. Cell membranes of the 5 cells types were obtained from homogenates (Polytron setting 6, 15 sec) of the corresponding CHO-K1 cells, in ice-cold Tris-HCl (50 mM) and centrifuged (39000 g, 10 min×2), with an intermediate resuspension in fresh buffer. The final pellets were resuspended in Tris-HCl (10 mM) for assay. Aliquots of the membranes were incubated (30 min at 37° C.) with 0.05 nM [^125I]Tyr^11-SRIF (types 1, 3, 4, 5) or [^125I]MK-678 (type 2) in […] (pH 7.4) containing BSA (10 mg mL^−1); MgCl2 (5 mM), Trasylol (200 kIU mL^−1), bacitracin (0.02 mg mL^−1), and phenylmethanesulfonyl fluoride (0.02 mg mL^−1). The final assay volume was 0.3 mL and incubations were terminated by rapid filtration through GF/C filters pre-soaked in 0.3% poly(ethylenimine) using a Brandel rapid filtration module. Each tube and filter was then washed with aliquots of cold buffer (3×5 mL).
as §2, §3

The target of assay [3] is T3, hSSTR-1 (Homo sapiens, UniProt P30872).
T3 construct: each containing the entire coding region of the full-length receptors; expressed in transfected cells
Kind of assay: Radioligand binding assay, cloned human somatostatin receptor type 1. As to conditions: CHO-K1 cell membranes, displacement of [125I]Tyr11-SRIF; mean ± SEM, single values = one experiment; read-out: Kd ± SEM hsst1.
Excerpt: (§4) Functional Expression of the Cloned Human Somatostatin Receptors. The genomic clones containing the human somatostatin receptors (hSSTR-1 to hSSTR-5) (Yamada, Y., et al. al., Proc. Natl. Acad. Sci. USA. 1992, 89, 251-255; Yasuda, K., et al., J. Biol. Chem. 1992, 267, 20422-20428; Yamada, Y., et al., Mol. Pharmacol. 1992, 42, 2136-2142; Rohrer, L., et al., Proc. Natl. Acad. Sci. USA. 1993, 90, 4196-4200.) were kindly provided by Dr. Graeme I. Bell of the University of Chicago. […]
(§5) Receptor Expression and Transfection. […] Membranes were prepared from the isolated clones and hSSTR expression was initially assessed for binding with [^125I]Tyr^11-SRIF and [^125I]MK-678 (for SSTR-2). […]
as §2, §3

Assay [4] deals with T4, hSSTR-2 (Homo sapiens, UniProt P30874).
T4 construct: each containing the entire coding region of the full-length receptors; expressed in transfected cells
Put plainly: Radioligand binding assay, cloned human somatostatin receptor type 2. To be noted: CHO-K1 cell membranes, displacement of [125I]MK-678; mean ± SEM, single values = one experiment; read-out: Kd ± SEM hsst2.
Excerpt: as §4, §5, §2, §3

Take `C[C@@H](O)[C@H](NC(=O)[C@@H]1CSSC[C@H](NC(=O)[C@H](N)Cc2ccccc2)C(=O)N(C)[C@@H](Cc2ccccc2)C(=O)N[C@H](Cc2c[nH]c3ccccc23)C(=O)N[C@@H](CCCCN)C(=O)N[C@@H]([C@@H](C)O)C(=O)N1)C(N)=O` [Example 3, DPhe-cyclo(Cys-NMePhe-DTrp-Lys-Thr-Cys)-Thr-NH2]: the Kd in assay [1] was found to be 83.2 ± 25.8 nM.

Consider `C[C@@H](O)[C@H](NC(=O)[C@@H]1CSSC[C@H](NC(=O)[C@H](N)Cc2ccccc2)C(=O)N[C@@H](Cc2ccccc2)C(=O)N[C@H](Cc2c[nH]c3ccccc23)C(=O)N(C)[C@@H](CCCCN)C(=O)N[C@@H]([C@@H](C)O)C(=O)N1)C(N)=O` [Example 5, DPhe-cyclo(Cys-Phe-DTrp-NMeLys-Thr-Cys)-Thr-NH2], for which the Kd in assay [2] is 67.5 ± 10 nM; in assay [3], 867 ± 102 nM; in assay [1], 8.41 ± 6.85 nM.

For `C[C@@H](O)[C@H](NC(=O)[C@@H]1CSSC[C@H](NC(=O)[C@H](N)Cc2ccccc2)C(=O)N[C@@H](Cc2ccccc2)C(=O)N[C@H](Cc2c[nH]c3ccccc23)C(=O)N[C@@H](CCCCN)C(=O)N[C@@H]([C@@H](C)O)C(=O)N1C)C(N)=O` [Example 7, DPhe-cyclo(Cys-Phe-DTrp-Lys-Thr-NMeCys)-Thr-NH2], the Kd in assay [2] was found to be 44.4 ± 8.36 nM.

`CN[C@@H](Cc1ccc(O)cc1)C(=O)N[C@H]1CSSC[C@@H](C(=O)N[C@H](C(N)=O)[C@@H](C)O)NC(=O)[C@H]([C@@H](C)O)NC(=O)[C@H](CCCCN)NC(=O)[C@@H](Cc2c[nH]c3ccccc23)NC(=O)[C@H](Cc2ccccc2)NC1=O` [Example 10, NMeTyr-cyclo(Cys-Phe-DTrp-Lys-Thr-Cys)-Thr-NH2]: the Kd in assay [2] is 3.01 ± 1.05 nM.

Turning to `C[C@@H](O)[C@H](NC(=O)[C@@H]1CSSC[C@H](N(C)C(=O)[C@@H](N)Cc2ccc(O)cc2)C(=O)N[C@@H](Cc2ccccc2)C(=O)N[C@H](Cc2c[nH]c3ccccc23)C(=O)N[C@@H](CCCCN)C(=O)N[C@@H]([C@@H](C)O)C(=O)N1)C(N)=O` [Example 11, Tyr-cyclo(NMeCys-Phe-DTrp-Lys-Thr-Cys)-Thr-NH2], the Kd in assay [3] amounted to 862 ± 162 nM.

With `C[C@@H](O)[C@H](NC(=O)[C@@H]1CSSC[C@H](NC(=O)[C@@H](N)Cc2ccc(O)cc2)C(=O)N(C)[C@@H](Cc2ccccc2)C(=O)N[C@H](Cc2c[nH]c3ccccc23)C(=O)N[C@@H](CCCCN)C(=O)N[C@@H]([C@@H](C)O)C(=O)N1)C(N)=O` [Example 12, Tyr-cyclo(Cys-NMePhe-DTrp-Lys-Thr-Cys)-Thr-NH2], in assay [4], the Kd came out at 40.1 ± 3.79 nM.

For `C[C@@H](O)[C@H](NC(=O)[C@@H]1CSSC[C@H](NC(=O)[C@@H](N)Cc2ccc(O)cc2)C(=O)N[C@@H](Cc2ccccc2)C(=O)N(C)[C@H](Cc2c[nH]c3ccccc23)C(=O)N[C@@H](CCCCN)C(=O)N[C@@H]([C@@H](C)O)C(=O)N1)C(N)=O` [Example 13, Tyr-cyclo(Cys-Phe-NMeDTrp-Lys-Thr-Cys)-Thr-NH2], the Kd in assay [2] is 8 ± 0.9 nM.

On to `C[C@@H](O)[C@H](NC(=O)[C@@H]1CSSC[C@H](NC(=O)[C@@H](N)Cc2ccc(O)cc2)C(=O)N[C@@H](Cc2ccccc2)C(=O)N[C@H](Cc2c[nH]c3ccccc23)C(=O)N[C@@H](CCCCN)C(=O)N[C@@H]([C@@H](C)O)C(=O)N1C)C(N)=O` [Example 16, Tyr-cyclo(Cys-Phe-DTrp-Lys-Thr-NMeCys)-Thr-NH2], for which the results for the dissociation constant (Kd) in assay [2] and in assay [1] were 17 ± 2.75 nM and 16.9 nM, respectively.
